The text below walks through data of patent US20190276812A1.

Assay [1] addresses cell surface cation-independent M6P receptor (CIMPR) on fibroblasts and myoblasts (UniProt P11717). Put plainly: cell-based or functional assay.
The target of assay [2] is cation-independent mannose 6-phosphate receptor (CIMPR), immobilised on a column or plate. The assay is described as follows: CIMPR affinity chromatography, M6P gradient elution, read by GAA activity.
For assay [3] the target is unchanged. Put plainly: CIMPR affinity chromatography of different production batches.
Assay [4] shares this target. The assay is described as follows: M6P receptor (CIMPR) plate binding assay, bound rhGAA read by GAA activity.

In assay [1], “Lumizyme (alglucosidase alfa, conventional rhGAA) (from UniProt P10253 57-952) (enzyme)” had a concentration that saturates cellular receptors (fibroblast uptake) of 250 nM; an uptake efficiency constant (Kuptake), internalized GAA activity in normal and Pompe fibroblasts of 56 nM. In assay [2], the percent of rhGAA bound to CIMPR (eluted with M6P) was determined as 22% and the percent of rhGAA that did not bind to the CIMPR was determined as 78%.
In assay [2], “Myozyme (alglucosidase alfa, conventional rhGAA) (from UniProt P10253 57-952) (enzyme)” gave a percent of rhGAA bound to CIMPR (eluted with M6P) of 27% and a percent of rhGAA that did not bind to the CIMPR of 73%.
For orientation: Kd means the equilibrium constant for the complex coming apart. In assay [1], “ATB-200 rhGAA (recombinant human acid alpha-glucosidase produced in CHO cell line GA-ATB-200) (from UniProt P10253 70-952) (enzyme)” gave a Kuptake, internalization by Pompe fibroblasts and skeletal muscle myoblasts of 7 to 14 nM; a concentration that saturates cellular receptors (fibroblast uptake) of 20 nM. Also, the percent CIMPR receptor binding in assay [3] was determined as 70%. Also, the dissociation constant Kd in assay [4] was 2 to 4 nM.
